Molecular target: Serotonin 2 (5-HT2) receptor (Rattus norvegicus, UniProt P30994+P08909+P14842)

Sequences of proteins named here, by UniProt entry; tags and fusion partners are left off. A change or cut given only in a name is not applied to a line headed by its entry.
UniProt P30994: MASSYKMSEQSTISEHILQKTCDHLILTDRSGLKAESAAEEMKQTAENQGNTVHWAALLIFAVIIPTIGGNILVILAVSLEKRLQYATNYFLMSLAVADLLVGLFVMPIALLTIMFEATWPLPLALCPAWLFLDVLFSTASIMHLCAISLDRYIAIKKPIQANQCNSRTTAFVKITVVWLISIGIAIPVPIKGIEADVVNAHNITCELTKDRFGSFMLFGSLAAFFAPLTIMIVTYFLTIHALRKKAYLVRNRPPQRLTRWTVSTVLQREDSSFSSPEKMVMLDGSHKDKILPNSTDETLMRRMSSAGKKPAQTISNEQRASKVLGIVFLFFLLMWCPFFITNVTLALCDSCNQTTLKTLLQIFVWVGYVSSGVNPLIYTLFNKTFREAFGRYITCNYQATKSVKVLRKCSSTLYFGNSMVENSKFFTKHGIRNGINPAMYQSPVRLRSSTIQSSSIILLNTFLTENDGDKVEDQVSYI
UniProt P08909: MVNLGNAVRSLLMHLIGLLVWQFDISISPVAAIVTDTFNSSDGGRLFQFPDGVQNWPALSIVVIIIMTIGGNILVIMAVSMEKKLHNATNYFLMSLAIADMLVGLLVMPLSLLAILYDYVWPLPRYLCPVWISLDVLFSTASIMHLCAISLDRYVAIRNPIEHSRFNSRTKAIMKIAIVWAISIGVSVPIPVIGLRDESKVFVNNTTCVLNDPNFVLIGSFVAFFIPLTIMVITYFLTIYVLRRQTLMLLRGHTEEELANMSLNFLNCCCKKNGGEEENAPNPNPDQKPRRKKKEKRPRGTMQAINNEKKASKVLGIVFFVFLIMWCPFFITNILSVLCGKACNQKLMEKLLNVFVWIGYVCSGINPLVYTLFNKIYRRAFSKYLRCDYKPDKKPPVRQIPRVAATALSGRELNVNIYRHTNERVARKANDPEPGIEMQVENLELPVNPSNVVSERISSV
UniProt P14842: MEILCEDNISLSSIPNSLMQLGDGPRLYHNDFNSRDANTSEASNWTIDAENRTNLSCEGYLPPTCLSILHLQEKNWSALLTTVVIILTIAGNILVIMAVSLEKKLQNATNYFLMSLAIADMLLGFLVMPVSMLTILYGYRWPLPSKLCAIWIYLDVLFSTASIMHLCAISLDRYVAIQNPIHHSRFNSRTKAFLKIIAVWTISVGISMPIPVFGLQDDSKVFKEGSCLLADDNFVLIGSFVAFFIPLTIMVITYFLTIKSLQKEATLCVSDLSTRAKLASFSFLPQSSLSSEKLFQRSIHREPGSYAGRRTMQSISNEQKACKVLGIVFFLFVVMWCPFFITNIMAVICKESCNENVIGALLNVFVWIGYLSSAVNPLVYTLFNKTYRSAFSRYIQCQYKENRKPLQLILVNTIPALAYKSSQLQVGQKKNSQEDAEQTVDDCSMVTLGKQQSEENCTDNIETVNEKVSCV

## COc1ccc2[nH]cc(CCN)c2c1 [5-METHOXYTRYPTAMINE]
  Log Ki: -5.99
